In this assay the test system is K562 cells. The assay is described as follows: Cell cycle analysis by flow cytometry (PI). The settings on record: 24 h, first peak in Figure 5. In general terms: Flow cytometry measures light scatter and fluorescence of single cells or particles in a stream.

With `O=C(CCCCCCC(=O)Nc1ccccc1)NO` [SAHA, Vorinostat, reference compound], the “G0/G1 phase ratio of K562 cells” value (1 µM) is reported as 44.45% and the “G0/G1 phase ratio of K562 cells” value (2 µM) amounted to 60.63%.
